In patent US20230331674A1 (priority 2020, published 2023):

Tested on: Caco-2 cell monolayers
Assay: In vitro permeability assay with Caco2 cells
Protocol: They were grown on Transwell® culture inserts with a polycarbonate membrane (diameter, 12 mm; pore size, 0.4 μm). 50,000 cells/filter membranes were used for seeding and the medium was changed every two days. At day 18, transepithelial electrical resistance (TEER) was measured for each filter with Caco-2 cell monolayers. […] The samples were acidified by dilution with the same volume of 0.01 M HCl before fluorescence measurements.
Ringer buffer with 10 mM d-glucose or 10 mM mannitol on apical and basolateral side of the tissue, respectively, was used as an incubation saline. […] The experiment started by the addition of stock solutions of (±)-N-((1-benzylpiperidin-3-yl)methyl)-N-(2-methoxyethyl)naphthalene-2-sulfonamide hydrochloride and fluorescein in the donor compartment to provide final 100 μM donor concentration of (±)-N-((1-benzylpiperidin-3-yl)methyl)-N-(2-methoxyethyl)naphthalene-2-sulfonamide and 20 μM fluorescein. The stock solutions were added either to the apical or to the basolateral compartment to obtain bidirectional permeability measurements. Six samples were withdrawn in 20 min intervals. Each time 300 μl was taken from the 1500 μL basolateral acceptor compartment and 100 μL from the 500 μL apical acceptor compartment. These volumes were immediately replaced by the appropriate fresh incubation saline. The concentrations of (±)-N-((1-benzylpiperidin-3-yl)methyl)-N-(2-methoxyethyl)naphthalene-2-sulfonamide in the samples were determined by HPLC-UV immediately after the experiment.

[1] = Caco-2, after inhibition with PSC833
[2] = Caco-2 monolayers, no inhibitor

## Rhodamine123
[1]
  apical-to-basolateral apparent permeability coefficient: 1 ×10⁻⁶ cm/s
  basolateral-to-apical apparent permeability coefficient: 2.5 ×10⁻⁶ cm/s
Caco-2, after inhibition with selective ABCB1 inhibitor PSC833
  Efflux ratio: 2.5
[2]
  Efflux ratio Papp(B-A)/Papp(A-B): 7.3
  Papp(A-B), apical-to-basolateral apparent permeability coefficient: 1.1 ×10⁻⁶ cm/s
  Papp(B-A), basolateral-to-apical apparent permeability coefficient: 7.7 ×10⁻⁶ cm/s
